For two compounds, IC50 results are on record in patent US12331044B2, “Inhibitors of histone deacetylase useful for the treatment or prevention of HIV infection” (Merck Sharp & Dohme LLC, priority 2018, dated 2025).

The chains behind the UniProt entries cited, without tags or fusion partners. Where a name states a change or a piece, a line headed by the entry shows the natural chain unless it says otherwise.
UniProt Q92769, whole entry: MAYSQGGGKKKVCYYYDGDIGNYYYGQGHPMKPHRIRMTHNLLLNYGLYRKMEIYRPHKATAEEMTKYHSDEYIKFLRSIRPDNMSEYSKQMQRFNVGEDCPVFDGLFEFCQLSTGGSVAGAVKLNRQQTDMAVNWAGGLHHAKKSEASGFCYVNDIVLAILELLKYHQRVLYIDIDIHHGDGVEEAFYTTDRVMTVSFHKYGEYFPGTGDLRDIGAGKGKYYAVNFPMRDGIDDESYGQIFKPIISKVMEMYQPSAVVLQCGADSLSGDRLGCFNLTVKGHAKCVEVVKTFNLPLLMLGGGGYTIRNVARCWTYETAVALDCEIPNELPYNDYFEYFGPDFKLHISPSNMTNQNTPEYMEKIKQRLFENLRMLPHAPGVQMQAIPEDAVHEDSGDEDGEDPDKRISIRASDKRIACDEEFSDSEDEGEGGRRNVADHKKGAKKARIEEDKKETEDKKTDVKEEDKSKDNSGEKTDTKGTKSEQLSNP
UniProt Q13547, whole entry: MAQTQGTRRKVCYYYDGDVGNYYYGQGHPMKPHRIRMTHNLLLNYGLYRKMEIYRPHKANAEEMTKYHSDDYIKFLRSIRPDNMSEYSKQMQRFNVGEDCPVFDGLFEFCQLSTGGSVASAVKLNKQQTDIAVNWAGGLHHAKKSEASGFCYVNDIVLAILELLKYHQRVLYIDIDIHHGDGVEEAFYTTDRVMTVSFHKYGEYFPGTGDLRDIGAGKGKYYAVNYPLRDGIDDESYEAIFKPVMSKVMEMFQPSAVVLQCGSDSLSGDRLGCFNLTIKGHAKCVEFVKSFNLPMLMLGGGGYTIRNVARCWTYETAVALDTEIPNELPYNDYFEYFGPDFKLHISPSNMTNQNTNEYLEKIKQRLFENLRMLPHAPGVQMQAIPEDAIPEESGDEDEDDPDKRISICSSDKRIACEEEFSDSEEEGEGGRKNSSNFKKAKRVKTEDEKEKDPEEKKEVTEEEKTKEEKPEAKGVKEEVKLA
UniProt Q9BY41: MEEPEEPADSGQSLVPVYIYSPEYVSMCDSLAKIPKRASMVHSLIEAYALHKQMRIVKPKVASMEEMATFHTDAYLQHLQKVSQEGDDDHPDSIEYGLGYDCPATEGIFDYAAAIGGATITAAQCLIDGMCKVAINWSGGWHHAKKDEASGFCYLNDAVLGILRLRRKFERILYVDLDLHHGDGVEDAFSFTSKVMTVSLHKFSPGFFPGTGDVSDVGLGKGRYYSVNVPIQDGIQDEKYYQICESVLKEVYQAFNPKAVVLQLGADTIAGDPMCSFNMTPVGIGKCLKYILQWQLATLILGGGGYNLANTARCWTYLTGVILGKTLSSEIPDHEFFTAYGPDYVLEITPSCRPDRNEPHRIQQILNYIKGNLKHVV
UniProt O15379: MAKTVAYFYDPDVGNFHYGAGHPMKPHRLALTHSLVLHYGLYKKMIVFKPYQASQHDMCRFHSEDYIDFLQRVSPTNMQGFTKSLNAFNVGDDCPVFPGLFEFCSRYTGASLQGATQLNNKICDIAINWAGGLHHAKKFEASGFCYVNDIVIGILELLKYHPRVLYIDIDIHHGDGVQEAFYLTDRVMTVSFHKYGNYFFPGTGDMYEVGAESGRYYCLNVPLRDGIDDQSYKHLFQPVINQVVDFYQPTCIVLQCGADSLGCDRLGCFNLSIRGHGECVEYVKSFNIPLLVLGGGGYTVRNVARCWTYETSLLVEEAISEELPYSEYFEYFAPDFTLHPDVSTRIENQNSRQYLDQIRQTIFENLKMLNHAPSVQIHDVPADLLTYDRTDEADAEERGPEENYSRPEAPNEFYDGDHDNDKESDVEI

One may read the IC50 as the concentration that gives 50% inhibition. A lower IC50 goes with greater potency.

Test [1] addresses human HDAC2 (Homo sapiens (Human), UniProt Q92769). Description: HDAC2 inhibition assay (modified FLUOR DE LYS, 384-well). It counts as biochemical.
The target of test [2] is human HDAC1 (Homo sapiens (Human), UniProt Q13547).
Test [3] addresses human HDAC8 (Homo sapiens (Human), UniProt Q9BY41). Description: HDAC8 inhibition assay (modified FLUOR DE LYS, 384-well). In kind it is biochemical. Conditions: […] enzyme, 200 μM substrate BML-KI178, 3 h pre-incubation.
For test [4], the target named is human HDAC3/SMRT heterodimer (Homo sapiens (Human), UniProt O15379). Briefly: biochemical.

For `N[C@@H](CCCCCC(=O)c1ccon1)c1ncc(-c2ccccc2F)[nH]1` [Example 37, (S)-7-amino-7-(5-(2-fluorophenyl)-1H-imidazol-2-yl)-1-(isoxazol-3-yl)heptan-1-one], the values for the IC50 in test [1], in test [2] and in test [3] were 8.5 nM, 1.4 nM and 280 nM, respectively.
`Cc1ccc2cc(-c3c[nH]c([C@H](CCCCCC(=O)c4ncco4)NC4CCN(C)CC4)n3)ccc2n1` [Example 78, (S)-7-((1-methylpiperidin-4-yl)amino)-7-(5-(2-methylquinolin-6-yl)-1H-imidazol-2-yl)-1-(oxazol-2-yl)heptan-1-one] had an IC50 in test [4] of 2.5 nM.
